Literature values in patent US7198946B2, “Screening for agents effective in decreasing abnormal macrophages associated with amyotrophic lateral sclerosis” (Pathologica, LLC, priority 2001, dated 2007).

Tested on: patients with ALS
Settings: Bensimon et al. 1994; Lacomblez et al. 1996; cited from earlier work

In the case of `Nc1nc2ccc(OC(F)(F)F)cc2s1` [riluzole], the “survival of patients with ALS” value is listed as “statistically significant effects on survival”.
